Test results: patent US7709465B2, “Phosphorous containing compounds including triphenylmethylphosphonate esters for the treatment of melanoma and other cancers” (The Board of Trustees of the University of Illinois, priority 2006, dated 2010)
Like-named read-outs stand apart in the source and are kept apart here.

What was measured:
[1] = tested on: UACC-62 cells; assay: cells; conditions: Homo sapiens
[2] = tested on: UACC-62 cells; conditions: read-out: IC50 (μM) at 72 hours
[3] = UACC-62, 72 h, read-out: IC50 (μM) at 72 hours
[4] = UACC-62, 72 h, read-out: IC50 (μM) at 72 hours, UACC-62 cells, 72 hours

Row | IC50 [1, 4] | Compound | further results
1 | – | COP(=O)(OC)C(c1ccccc1)(c1ccccc1)c1ccccc1 [CX1] | IC50 [1, 3]: 0.33 µM
2 | 0.29 µM | O=C(O)CCCn1cc(COP(=O)(OCc2cn(CCCC(=O)O)nn2)C(c2ccccc2)(c2ccccc2)c2ccccc2)nn1 [CX2] | –
3 | 0.64 µM | O=P(OCC(O)CO)(OCC(O)CO)C(c1ccccc1)(c1ccccc1)c1ccccc1 (stereo not shown) [CX4] | –
4 | – | CCOP(=O)(OCC)C(c1ccccc1)(c1ccccc1)c1ccccc1 [CX5] | IC50 [1, 3]: 0.67 µM; IC50 ([1]; UACC-62, read-out: diethyl TPMP IC50 (μM)): 0.67 µM
5 | 0.72 µM | CC(O)(CO)CCOP(=O)(OCCC(C)(O)CO)C(c1ccccc1)(c1ccccc1)c1ccccc1 (stereo not shown) [CX6] | –
6 | 2.3 µM | CCCCOP(=O)(OCCC)C(c1ccccc1)(c1ccccc1)c1ccccc1 (stereo not shown) [CX7] | –
7 | 2.5 µM | C#CCOP(=O)(OCC#C)C(c1ccccc1)(c1ccccc1)c1ccccc1 [CX8] | –
8 | 2.33 µM | O=C(O)C1OP(=O)(C(c2ccccc2)(c2ccccc2)c2ccccc2)OC1C(=O)O (stereo not shown) [CX9] | –
9 | 4.21 µM | CC(C)OC(=O)C1OP(=O)(C(c2ccccc2)(c2ccccc2)c2ccccc2)OC1C(=O)OC(C)C (stereo not shown) [CX10] | –
10 | 4.5 µM | CC#CCOP(=O)(OCC#CC)C(c1ccccc1)(c1ccccc1)c1ccccc1 [CX11] | –
11 | 4.6 µM | CCCCOP(=O)(OCCCC)C(c1ccccc1)(c1ccccc1)c1ccccc1 [CX12] | –
12 | 7.19 µM | O=P1(C(c2ccccc2)(c2ccccc2)c2ccccc2)OCCO1 [CX13] | IC50 [2]: 13.8 µM
13 | 16.5 µM | C=C(C)CCOP(=O)(OCCC(=C)C)C(c1ccccc1)(c1ccccc1)c1ccccc1 [CX15] | –
14 | – | CCOP(=O)(OCC)C(c1ccccc1)c1ccccc1 [CX17] | IC50 [1, 3]: 51 µM
